In PubChem BioAssay AID1511 (Johns Hopkins Ion Channel Center, 2009) one finds activation (rescue from dofetilide block), less the hit threshold data, which are given here for 49 compounds.

Amino acid sequences for entries named in this document (tags omitted). A change or cut given only in a name is not applied to a line headed by its entry.
UniProt Q12809: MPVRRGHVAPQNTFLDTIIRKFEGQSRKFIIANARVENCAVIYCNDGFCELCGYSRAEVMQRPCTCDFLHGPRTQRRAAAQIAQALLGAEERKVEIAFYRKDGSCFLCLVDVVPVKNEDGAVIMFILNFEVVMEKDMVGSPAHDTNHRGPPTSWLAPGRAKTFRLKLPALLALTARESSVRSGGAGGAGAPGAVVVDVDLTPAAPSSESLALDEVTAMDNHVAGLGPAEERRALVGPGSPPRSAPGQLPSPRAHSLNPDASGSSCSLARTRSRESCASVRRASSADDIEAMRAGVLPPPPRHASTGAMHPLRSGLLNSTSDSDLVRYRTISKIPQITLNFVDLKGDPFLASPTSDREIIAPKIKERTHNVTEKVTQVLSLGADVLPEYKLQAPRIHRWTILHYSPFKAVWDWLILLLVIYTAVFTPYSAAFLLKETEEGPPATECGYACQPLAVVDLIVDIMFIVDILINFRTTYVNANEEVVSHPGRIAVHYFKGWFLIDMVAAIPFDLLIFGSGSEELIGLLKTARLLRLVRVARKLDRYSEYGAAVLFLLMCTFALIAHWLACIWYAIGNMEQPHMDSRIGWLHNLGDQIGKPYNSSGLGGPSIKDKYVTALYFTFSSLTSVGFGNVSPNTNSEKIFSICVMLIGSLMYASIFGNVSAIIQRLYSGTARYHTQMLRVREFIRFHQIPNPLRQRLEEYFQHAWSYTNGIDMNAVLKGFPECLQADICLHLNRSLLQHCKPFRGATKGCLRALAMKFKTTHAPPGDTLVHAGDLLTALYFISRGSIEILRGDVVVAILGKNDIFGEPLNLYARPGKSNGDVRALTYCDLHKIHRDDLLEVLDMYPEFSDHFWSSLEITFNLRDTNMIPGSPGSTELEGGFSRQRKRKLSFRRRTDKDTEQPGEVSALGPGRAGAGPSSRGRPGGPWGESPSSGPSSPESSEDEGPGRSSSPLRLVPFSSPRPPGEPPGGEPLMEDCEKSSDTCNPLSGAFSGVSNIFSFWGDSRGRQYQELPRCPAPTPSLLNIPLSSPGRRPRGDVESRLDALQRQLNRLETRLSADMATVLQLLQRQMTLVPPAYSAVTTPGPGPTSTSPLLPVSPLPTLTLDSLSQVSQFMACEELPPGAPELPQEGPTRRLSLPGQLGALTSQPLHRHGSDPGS

The structures appear in SMILES notation. This is a selection; strong and weak results do not stand in their true shares. The source made the active and inactive calls.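 How the source made its calls: active means activation above the mean of controls blocked by dofetilide plus 5 SD; inactive means the rest.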

The assay has as its target Voltage-gated inwardly rectifying potassium channel KCNH2 (Homo sapiens) (UniProt Q12809). Put plainly: PubChem AID 1511.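 Further: thallium influx through hERG after potassium depolarization seen as dye fluorescence rise.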 The conditions noted are these: CHO-hERG, FluxOR thallium flux, dofetilide IC70 present; at 10 µM; active compounds read high. Background: The hERG channel carries a current that helps repolarise heart muscle cells.
Regarding `O=C(OC1CN2CCC1CC2)c1cccc(Cl)c1` (centres undefined), the activation (rescue from dofetilide block), less the hit threshold was inactive: -2.57%.
Consider `C(Cc1nn[nH]n1)Cc1nn[nH]n1`, for which the activation (rescue from dofetilide block), less the hit threshold was inactive: -3.25%.
With `Nc1ccc([As](=O)(O)c2ccc([N+](=O)[O-])cc2)cc1`, the activation (rescue from dofetilide block), less the hit threshold is inactive: -1.73%.
For the compound `O=[As](O)(c1ccccc1)c1ccc(O)cc1`, the activation (rescue from dofetilide block), less the hit threshold was inactive: -4.07%.
On to `O=[N+]([O-])c1ncn(CCn2cnc([N+](=O)[O-])n2)n1`, for which the activation (rescue from dofetilide block), less the hit threshold was inactive: -6.83%.
The figure for `CC(=O)NC(SC(=S)N(C)C)C(Cl)(Cl)Cl` (centres undefined) is inactive: -11.5%.
For `O=[N+]([O-])c1ccc(O)c(/C=N/Nc2ccc([N+](=O)[O-])cc2[N+](=O)[O-])c1` the value was inactive: -2.16%; for `O=P(Nc1nc2ccccc2s1)(c1ccccc1)c1ccccc1`, inactive: -8.94%.
The figure for `C[C@H]1OP(=O)(Oc2ccccc2)[C@H](O)[C@H](O)[C@H]1N=[N+]=[N-]` (some centres undefined) is inactive: -7.01%.
Take `CN(C)C1(CNC(=O)c2ccc(Cl)c(S(N)(=O)=O)c2)CCCCC1`: the activation (rescue from dofetilide block), less the hit threshold is inactive: -1.45%.
As for `O=P(Nc1ccccn1)(c1ccc(Br)cc1)c1ccc(Br)cc1`, the activation (rescue from dofetilide block), less the hit threshold is inactive: -10.8%.
The figure for `COc1ccc(C[C@H](C)NC[C@@H](O)c2ccc(O)c(NC=O)c2)cc1` is inactive: -8.01%; for `c1nnnn1CCn1cnnn1` it is inactive: -5.2%.
`O=P(Nc1nccs1)(c1ccccc1)c1ccccc1`: the activation (rescue from dofetilide block), less the hit threshold was inactive: -8.34%.
The figure for `CC(C)C(=O)NC(Sc1ccccc1)C(Cl)(Cl)Cl` (centres undefined) is inactive: -2.13%; for `CC(=O)Nc1ccc([As](=O)(O)O)c(O)c1` it is inactive: -11.8%.
For `CC(=O)Nc1ccc(Oc2c([N+](=O)[O-])cc([N+](=O)[O-])cc2[N+](=O)[O-])cc1` the value was inactive: -7.07%; for `C[C@H]1OP(=O)(Oc2ccccc2)C[C@@H]2O[C@@H]21` (some centres undefined), inactive: -5.72%.
For the compound `C[C@@H]1C=CCP(=O)(Oc2ccccc2)O1` (some centres undefined), the activation (rescue from dofetilide block), less the hit threshold was inactive: -7.71%.
For `CC(=O)c1ccc(N2CC2c2ccncc2)cc1` (centres undefined) the value was inactive: -6.17%; for `CC(C)(C)C(=O)NC(Sc1ccccc1)C(Cl)(Cl)Cl` (centres undefined), inactive: -18%; for `O=P1(Nc2nc3ccc(Cl)cc3s2)COc2ccccc2O1` (centres undefined), inactive: -6.35%.
The figure for `CCOc1ccc(C2=NCC(CBr)S2)cc1` (centres undefined) is inactive: -22.4%.
For `Cc1ccccc1OP(=O)(Nc1ccccn1)Oc1ccccc1C` the value was inactive: -37%.
As to `CN(C)C(=O)Oc1noc2ccccc12`, the activation (rescue from dofetilide block), less the hit threshold is inactive: -6.19%.
Turning to `O=C(OC1CN2CCC1CC2)c1ccccc1` (centres undefined), the activation (rescue from dofetilide block), less the hit threshold was inactive: -7.92%.
The figure for `CCC(=O)N1C2C3N(C(=O)CC)C1C1N(C(=O)CC)C(C(N1C(=O)CC)N3C(=O)CC)N2C(=O)CC` is inactive: -9.74%; for `COC(=O)c1cc2c(s1)N=C(c1ccccc1)N(C)P2(=O)N1CCOCC1` (centres undefined) it is inactive: -5.48%; for `Cc1ccc(OP(=O)(Nc2ccccn2)Oc2ccc(C)cc2)cc1` it is inactive: -6.31%.
For `CC(=O)NC(SC(=S)N(CC(C)C)CC(C)C)C(Cl)(Cl)Cl` (centres undefined) the value was inactive: -0.95%; for `c1ccc(-c2nn[nH]n2)c(-c2nn[nH]n2)c1`, inactive: -2.79%; for `CCOC(=O)NC(Sc1ccccc1)C(Cl)(Cl)Cl` (centres undefined), inactive: -4.72%.
The figure for `Cc1ccc(NP(=O)(Oc2cccc(C)c2)Oc2cccc(C)c2)nc1` is inactive: -10.2%; for `O=C(NC1CCS(=O)(=O)C1)NP(=S)(Oc1ccccc1)Oc1ccccc1` (centres undefined) it is inactive: -3.95%; for `CCNC(=S)/N=C(\N)N[N+](=O)[O-]` it is inactive: -9.67%.
`Nc1cccc2ccc([As](=O)(O)O)cc12`: the activation (rescue from dofetilide block), less the hit threshold was inactive: -2.28%.
The figure for `CCN(N=Nc1nonc1N)c1nonc1N` is inactive: -13%; for `O=[N+]([O-])c1cc([N+](=O)[O-])c(CCN2CCOCC2)c([N+](=O)[O-])c1` it is inactive: -13.8%.
The figure for `Cc1cc(SC(NC(=O)c2ccc(F)cc2)C(Cl)(Cl)Cl)ncn1` (centres undefined) is inactive: -7.21%.
The figure for `CCOP(=O)(Nc1ccccc1)OCC` is inactive: -4.62%; for `CN(C(=O)Cc1ccc(Cl)c(Cl)c1)[C@H]1CCCC[C@@H]1N1CCCC1` it is inactive: -4.79%; for `Cc1ccc(NP(=O)(Oc2ccccc2F)Oc2ccccc2F)nc1` it is inactive: -2.3%.
Regarding `O=P(Nc1nc2ccc(Cl)cc2s1)(c1ccccc1)c1ccccc1`, the activation (rescue from dofetilide block), less the hit threshold was inactive: -6.88%.
The figure for `CC(=O)Nc1ccc([As](=O)(O)O)cc1` is inactive: -6.5%; for `O=C(O)c1ccccc1[As](=O)(O)O` it is inactive: -4.82%.
The figure for `Oc1ccccc1CNc1ccccn1` is inactive: -4.45%.
The figure for `O=C(NC(Sc1ccncn1)C(Cl)(Cl)Cl)c1ccccc1` (centres undefined) is inactive: -12.1%; for `Cc1c2non([O-])c-2c(C)[n+](=O)[n+]1[O-]` it is inactive: -29.8%.
On to `Nc1cc(N)c2nonc2c1[N+](=O)[O-]`, for which the activation (rescue from dofetilide block), less the hit threshold is inactive: -4.06%.
